For 1 compound, Ki results are on record in ChEMBL document CHEMBL4433208, “N-Nitrosulfonamides as Carbonic Anhydrase Inhibitors: A Promising Chemotype for Targeting Chagas Disease and Leishmaniasis” (ACS Med Chem Lett, 2019).

Chains of the proteins cited; added tags and fusions are not shown. Residues count along the entry.
UniProt P00915, 2-261 limits assumed: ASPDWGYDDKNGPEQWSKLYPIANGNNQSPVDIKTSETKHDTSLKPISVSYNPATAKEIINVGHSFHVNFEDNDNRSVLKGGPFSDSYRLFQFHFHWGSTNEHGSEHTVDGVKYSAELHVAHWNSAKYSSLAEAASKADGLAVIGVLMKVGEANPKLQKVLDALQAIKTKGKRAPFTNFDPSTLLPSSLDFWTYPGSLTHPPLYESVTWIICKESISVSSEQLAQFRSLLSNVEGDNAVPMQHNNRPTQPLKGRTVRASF
UniProt P22748, 19-284 limits assumed: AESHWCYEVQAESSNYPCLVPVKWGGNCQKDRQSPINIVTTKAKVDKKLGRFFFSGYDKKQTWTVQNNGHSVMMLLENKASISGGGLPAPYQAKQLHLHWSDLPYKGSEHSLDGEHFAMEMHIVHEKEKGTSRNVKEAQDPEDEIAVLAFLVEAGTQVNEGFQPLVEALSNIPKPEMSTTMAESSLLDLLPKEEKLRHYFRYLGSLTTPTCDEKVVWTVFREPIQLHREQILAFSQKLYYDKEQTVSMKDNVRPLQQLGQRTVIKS
UniProt O43570, 25-354 limits assumed: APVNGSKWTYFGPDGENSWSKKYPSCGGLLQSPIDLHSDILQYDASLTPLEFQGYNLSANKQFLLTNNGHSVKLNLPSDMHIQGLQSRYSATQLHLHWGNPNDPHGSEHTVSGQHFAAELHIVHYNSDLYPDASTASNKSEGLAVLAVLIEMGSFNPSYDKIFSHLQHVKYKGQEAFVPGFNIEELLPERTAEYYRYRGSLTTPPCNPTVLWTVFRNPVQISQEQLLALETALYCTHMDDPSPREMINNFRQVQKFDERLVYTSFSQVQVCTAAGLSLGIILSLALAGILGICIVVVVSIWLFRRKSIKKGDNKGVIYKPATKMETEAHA

Test [1] addresses Carbonic anhydrase 1 (Homo sapiens, UniProt P00915). As to the kind of experiment: Inhibition of recombinant human carbonic anhydrase 1 preincubated for 15 mins by phenol red dye based stopped flow CO2 hydration assay.
The target of test [2] is Carbonic anhydrase 4 (Homo sapiens, UniProt P22748). As to the kind of experiment: Inhibition of recombinant human carbonic anhydrase 4 preincubated for 15 mins by phenol red dye based stopped flow CO2 hydration assay.
For test [3], the target named is Carbonic anhydrase 12 (Homo sapiens, UniProt O43570). As to the kind of experiment: Inhibition of recombinant human carbonic anhydrase 12 preincubated for 15 mins by phenol red dye based stopped flow CO2 hydration assay.
Test [4] has as its target Carbonic anhydrase 9 (Homo sapiens, UniProt Q16790). Description: Inhibition of recombinant human carbonic anhydrase 9 preincubated for 15 mins by phenol red dye based stopped flow CO2 hydration assay.
The target in test [5] is Carbonic anhydrase 2 (Homo sapiens, UniProt P00918). As to the kind of experiment: Inhibition of recombinant human carbonic anhydrase 2 preincubated for 15 mins by phenol red dye based stopped flow CO2 hydration assay.

One may read the Ki as a measure of affinity in units of concentration, obtained from inhibition or displacement. As to `Nc1cc(S(=O)(=O)[N-][N+](=O)[O-])cc([N+](=O)[O-])c1O`, the Ki in test [1] was 19.8 µM; in test [2] it was 1900 nM; in test [3] it was 550 nM; in test [4], 5.2 µM; in test [5], 45 µM.
